From US20030139427A1, “Bicyclic pyrimidinyl derivatives and methods of use thereof” (OSI Pharmaceuticals Inc., priority 2002, published 2003)

By UniProt entry, the sequences of proteins in these tests, tags left out.
UniProt P30542, whole entry: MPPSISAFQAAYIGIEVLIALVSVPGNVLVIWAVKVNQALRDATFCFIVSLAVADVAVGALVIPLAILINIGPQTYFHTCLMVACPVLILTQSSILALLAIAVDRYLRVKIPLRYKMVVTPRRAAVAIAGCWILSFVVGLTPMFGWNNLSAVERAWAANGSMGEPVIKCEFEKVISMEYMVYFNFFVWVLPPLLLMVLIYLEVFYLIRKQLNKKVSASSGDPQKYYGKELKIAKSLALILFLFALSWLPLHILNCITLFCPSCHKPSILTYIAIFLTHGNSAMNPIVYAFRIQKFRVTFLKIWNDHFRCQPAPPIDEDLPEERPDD

Target: human A1 adenosine receptor (Homo sapiens, UniProt P30542)
Test: fus1-LacZ β-galactosidase assay in yeast expressing human A1 adenosine receptor (Ste18-Gγ2, GPA41-Gαi3)
Settings: NECA concentration of 10^−8 M, CPRG substrate

For `CCNC(=O)[C@H]1O[C@@H](n2cnc3c(N)ncnc32)[C@H](O)[C@@H]1O`, the “stimulation of β-galactosidase activity” value was “approximately 2 fold”.
